Assay results taken from patent US20230399313A1, “BIOLOGICAL ACTIVITIES OF 5-(2-(4-(4-FLUORO-2-METHYL-1H-INDOL-5-YLOXY)-6-METHOXYQUINOLIN-7-YLOXY)ETHYL)-5-AZASPIRO[2.4]-HEPTAN-7-OL CRYSTALLINE, PHOSPHORIC ACID SALT AND ITS ENANTIOMERS” (Advenchen Pharmaceuticals, LLC, priority 2022, published 2023).

System: murine colorectal CT26 cell line
Assay: Murine colorectal CT26 model, combination with anti-mouse PD-1 antibody
Type: in vivo
Details: 200 μg/mouse/Q3d IP, CT26 mice
Protocol: The efficacy of Compound A-Xln plus immunotherapies, such as anti-mouse PD-1 antibody combination treatment was also tested.
Nude mice were inoculated with murine colorectal CT26 cell line for 7 days and randomized into groups of 6 and were then treated with vehicle, Compound A-Xln in two dosing groups once daily, anti-mouse PD-1 (PD-1) at 200 μg/mouse once every 3 days in one group, or a combination of Compound A-Xln with anti-PD-1 in two dosing groups.

Substance: PD-1
- Mean tumor volume D0 (D0 (first drug administration time, baseline)): 126.5 mm^3
- Mean tumor volume D17 (D17): 1526.8 mm^3
- T/C D17 (D17): 67.90%
